Molecular target: human recombinant Btk (Homo sapiens, UniProt Q06187)
Test: Btk enzymatic activity assay (Caliper-based kinase assay)
Type: biochemical
Details: human recombinant Btk 2 nM, ATP 40 μM, room temperature 3 h, compounds of Cpd Table 1

Sequences of proteins named here, by UniProt entry; tags and fusion partners are left off. A change or cut given only in a name is not applied to a line headed by its entry.
UniProt Q06187: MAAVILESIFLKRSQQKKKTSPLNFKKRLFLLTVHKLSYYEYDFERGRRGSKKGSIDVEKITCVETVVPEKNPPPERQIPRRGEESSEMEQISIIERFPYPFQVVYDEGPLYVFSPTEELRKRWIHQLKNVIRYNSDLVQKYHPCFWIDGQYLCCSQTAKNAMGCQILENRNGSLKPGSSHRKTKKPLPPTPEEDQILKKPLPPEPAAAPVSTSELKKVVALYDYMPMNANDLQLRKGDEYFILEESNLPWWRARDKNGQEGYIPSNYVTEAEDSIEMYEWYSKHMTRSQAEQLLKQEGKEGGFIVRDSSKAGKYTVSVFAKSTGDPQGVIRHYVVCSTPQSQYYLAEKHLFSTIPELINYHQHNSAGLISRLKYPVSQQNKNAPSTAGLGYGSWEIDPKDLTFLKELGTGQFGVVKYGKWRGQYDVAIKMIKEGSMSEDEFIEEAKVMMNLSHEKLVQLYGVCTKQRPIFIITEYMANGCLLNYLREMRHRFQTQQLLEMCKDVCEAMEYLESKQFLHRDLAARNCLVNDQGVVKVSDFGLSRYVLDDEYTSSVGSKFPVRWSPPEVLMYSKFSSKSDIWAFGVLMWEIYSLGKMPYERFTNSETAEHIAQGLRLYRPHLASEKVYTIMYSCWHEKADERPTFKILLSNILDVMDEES

- IC50: 3.7 nM
Structure (SMILES): N#CC(=CC1CCCN1)C(=O)N1CCCC1Cn1nc(-c2ccc(Oc3ccccc3)cc2F)c2c(N)ncnc21 (stereo not shown) [Example 186, N-(2-(4-amino-3-(4-phenoxyphenyl)-1H-pyrazolo[3,4-d]pyrimidin-1-yl)ethyl)-2-cyano-3-cyclopropyl-N-methyl acrylamide]

Reference: patent publication US8962831B2, “Tyrosine kinase inhibitors” (Principia Biopharma Inc., priority 2011, dated 2015)
